The values below are quoted from earlier work in patent US12102640B2, “Use of dopamine and serotonin receptor antagonists for treatment in a subject with retinal degeneration” (United States Government as represented by the Department …, priority 2015, dated 2024).

Sequences of proteins named here, by UniProt entry; tags and fusion partners are left off.
UniProt P21917, whole entry: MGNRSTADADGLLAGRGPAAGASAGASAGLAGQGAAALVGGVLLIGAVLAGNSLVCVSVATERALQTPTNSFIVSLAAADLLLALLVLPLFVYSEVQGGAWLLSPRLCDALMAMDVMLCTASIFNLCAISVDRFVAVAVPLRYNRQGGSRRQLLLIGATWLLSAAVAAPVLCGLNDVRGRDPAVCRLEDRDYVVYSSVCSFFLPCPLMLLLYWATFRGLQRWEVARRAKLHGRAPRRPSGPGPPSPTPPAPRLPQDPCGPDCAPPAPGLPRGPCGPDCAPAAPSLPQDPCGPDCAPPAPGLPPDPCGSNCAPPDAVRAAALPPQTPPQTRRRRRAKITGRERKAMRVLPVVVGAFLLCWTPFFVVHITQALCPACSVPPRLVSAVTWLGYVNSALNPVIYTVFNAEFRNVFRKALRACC

This data set addresses D4 receptor (Homo sapiens, UniProt P21917). The note with it: cited from earlier work.

For the compound `Cl.Cl.Cl.Clc1ccc(N2CCN(Cc3c[nH]c4ncccc34)CC2)cc1` [L-745,870, 3-(4-[4-Chlorophenyl]piperazin-1-yl)-methyl-1-H-pyrrolo[2,3-b]pyridinetrihydrochloride], the “selectivity among dopamine D2-like receptors” value is recorded as “selective for D4 receptor”.
